The chains behind the UniProt entries cited, without tags or fusion partners. Residues count along the entry.
UniProt P04049, whole entry: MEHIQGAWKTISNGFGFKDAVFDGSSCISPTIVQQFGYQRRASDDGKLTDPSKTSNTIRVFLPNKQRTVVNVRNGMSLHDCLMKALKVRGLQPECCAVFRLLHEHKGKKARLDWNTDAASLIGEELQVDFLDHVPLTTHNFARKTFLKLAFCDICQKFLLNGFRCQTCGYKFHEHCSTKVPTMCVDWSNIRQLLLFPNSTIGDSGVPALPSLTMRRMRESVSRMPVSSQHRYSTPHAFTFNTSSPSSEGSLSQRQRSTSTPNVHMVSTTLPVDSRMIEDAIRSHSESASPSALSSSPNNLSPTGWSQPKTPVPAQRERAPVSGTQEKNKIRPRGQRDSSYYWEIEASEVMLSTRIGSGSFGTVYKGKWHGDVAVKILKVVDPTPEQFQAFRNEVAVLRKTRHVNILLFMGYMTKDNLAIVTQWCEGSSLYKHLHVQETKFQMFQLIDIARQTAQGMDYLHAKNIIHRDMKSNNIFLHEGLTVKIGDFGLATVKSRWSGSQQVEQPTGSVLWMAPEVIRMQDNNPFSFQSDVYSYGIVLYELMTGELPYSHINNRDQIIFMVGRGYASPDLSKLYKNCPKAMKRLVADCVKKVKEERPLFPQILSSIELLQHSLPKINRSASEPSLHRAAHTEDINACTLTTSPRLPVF
UniProt P16234, 24-1089 limits assumed: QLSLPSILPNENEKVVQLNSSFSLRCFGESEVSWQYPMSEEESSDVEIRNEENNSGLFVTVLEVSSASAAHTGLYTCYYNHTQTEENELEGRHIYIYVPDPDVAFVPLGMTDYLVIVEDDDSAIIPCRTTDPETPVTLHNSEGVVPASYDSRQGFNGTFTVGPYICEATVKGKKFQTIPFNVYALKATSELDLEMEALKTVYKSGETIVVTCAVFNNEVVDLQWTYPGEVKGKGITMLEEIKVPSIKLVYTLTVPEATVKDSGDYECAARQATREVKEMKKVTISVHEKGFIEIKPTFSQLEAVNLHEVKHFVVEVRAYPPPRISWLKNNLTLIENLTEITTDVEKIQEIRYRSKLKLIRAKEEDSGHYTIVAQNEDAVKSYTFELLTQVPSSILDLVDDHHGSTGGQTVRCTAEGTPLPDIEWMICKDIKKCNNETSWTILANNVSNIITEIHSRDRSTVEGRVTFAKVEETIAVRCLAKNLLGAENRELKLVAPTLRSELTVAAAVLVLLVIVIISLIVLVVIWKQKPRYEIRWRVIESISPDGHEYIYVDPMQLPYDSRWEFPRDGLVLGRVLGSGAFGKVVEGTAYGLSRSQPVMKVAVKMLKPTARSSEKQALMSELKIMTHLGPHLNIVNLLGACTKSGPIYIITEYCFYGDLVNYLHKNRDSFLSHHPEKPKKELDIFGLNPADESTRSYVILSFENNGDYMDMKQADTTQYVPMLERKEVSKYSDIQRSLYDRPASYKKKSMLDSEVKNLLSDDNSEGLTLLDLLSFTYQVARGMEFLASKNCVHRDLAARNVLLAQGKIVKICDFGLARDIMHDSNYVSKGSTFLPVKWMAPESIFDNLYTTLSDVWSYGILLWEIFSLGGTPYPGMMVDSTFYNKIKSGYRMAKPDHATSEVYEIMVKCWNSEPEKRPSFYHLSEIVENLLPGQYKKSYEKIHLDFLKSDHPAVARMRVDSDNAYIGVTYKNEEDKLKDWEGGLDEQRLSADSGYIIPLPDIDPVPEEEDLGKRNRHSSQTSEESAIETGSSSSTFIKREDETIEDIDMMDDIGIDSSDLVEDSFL
UniProt P42684, whole entry: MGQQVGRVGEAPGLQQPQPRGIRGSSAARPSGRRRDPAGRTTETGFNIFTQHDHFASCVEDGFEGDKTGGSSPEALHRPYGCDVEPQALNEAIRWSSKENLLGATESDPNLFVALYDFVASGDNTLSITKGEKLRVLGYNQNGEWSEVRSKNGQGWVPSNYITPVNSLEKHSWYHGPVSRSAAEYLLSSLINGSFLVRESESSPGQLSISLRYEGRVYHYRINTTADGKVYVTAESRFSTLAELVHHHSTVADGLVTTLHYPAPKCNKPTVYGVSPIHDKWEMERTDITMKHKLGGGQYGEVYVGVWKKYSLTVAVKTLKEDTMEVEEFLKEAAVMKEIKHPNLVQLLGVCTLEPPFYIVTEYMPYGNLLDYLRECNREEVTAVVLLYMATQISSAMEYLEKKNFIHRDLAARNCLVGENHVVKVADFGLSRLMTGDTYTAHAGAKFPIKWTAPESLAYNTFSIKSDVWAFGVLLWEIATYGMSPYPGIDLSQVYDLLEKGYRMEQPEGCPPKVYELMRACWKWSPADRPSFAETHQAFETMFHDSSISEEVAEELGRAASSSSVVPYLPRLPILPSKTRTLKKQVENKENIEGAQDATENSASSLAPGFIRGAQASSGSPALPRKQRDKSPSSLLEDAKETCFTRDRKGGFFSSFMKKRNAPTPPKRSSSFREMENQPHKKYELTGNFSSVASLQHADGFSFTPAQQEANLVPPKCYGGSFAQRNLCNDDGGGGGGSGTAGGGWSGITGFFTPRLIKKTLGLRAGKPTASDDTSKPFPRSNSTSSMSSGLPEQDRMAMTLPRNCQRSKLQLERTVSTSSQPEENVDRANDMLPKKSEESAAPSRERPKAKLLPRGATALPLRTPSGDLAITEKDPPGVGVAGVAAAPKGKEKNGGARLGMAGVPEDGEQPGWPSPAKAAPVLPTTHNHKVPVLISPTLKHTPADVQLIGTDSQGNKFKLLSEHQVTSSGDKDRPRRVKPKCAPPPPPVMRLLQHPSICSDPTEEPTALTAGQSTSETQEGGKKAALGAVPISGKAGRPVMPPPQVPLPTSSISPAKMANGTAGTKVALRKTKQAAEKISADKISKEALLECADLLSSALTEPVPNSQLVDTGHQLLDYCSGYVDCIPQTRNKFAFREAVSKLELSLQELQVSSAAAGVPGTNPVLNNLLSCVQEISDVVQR
UniProt Q08345, 19-913 limits assumed: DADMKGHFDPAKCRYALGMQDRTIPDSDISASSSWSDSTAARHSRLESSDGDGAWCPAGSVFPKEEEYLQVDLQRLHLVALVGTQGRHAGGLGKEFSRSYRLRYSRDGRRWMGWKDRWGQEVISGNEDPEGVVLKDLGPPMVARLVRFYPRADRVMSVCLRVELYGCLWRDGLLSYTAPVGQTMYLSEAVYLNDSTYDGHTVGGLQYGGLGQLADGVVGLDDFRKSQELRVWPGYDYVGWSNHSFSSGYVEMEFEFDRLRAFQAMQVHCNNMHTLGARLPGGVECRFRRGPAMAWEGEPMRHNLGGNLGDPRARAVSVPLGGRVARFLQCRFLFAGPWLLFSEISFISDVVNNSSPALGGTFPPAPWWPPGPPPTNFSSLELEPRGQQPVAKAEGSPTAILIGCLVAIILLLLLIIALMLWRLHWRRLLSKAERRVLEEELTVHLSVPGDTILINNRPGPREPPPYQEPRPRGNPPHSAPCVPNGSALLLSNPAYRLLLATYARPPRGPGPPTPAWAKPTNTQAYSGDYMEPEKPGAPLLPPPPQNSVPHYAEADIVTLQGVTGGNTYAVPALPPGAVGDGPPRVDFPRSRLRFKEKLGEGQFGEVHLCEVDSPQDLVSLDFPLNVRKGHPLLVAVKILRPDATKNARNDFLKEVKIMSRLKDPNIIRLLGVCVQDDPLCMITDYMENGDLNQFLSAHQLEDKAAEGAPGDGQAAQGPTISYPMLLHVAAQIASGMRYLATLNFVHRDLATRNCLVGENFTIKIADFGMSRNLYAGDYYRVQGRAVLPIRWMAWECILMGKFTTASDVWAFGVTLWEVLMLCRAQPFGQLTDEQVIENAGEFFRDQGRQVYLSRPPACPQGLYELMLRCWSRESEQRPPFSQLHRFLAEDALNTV
UniProt P17948, 27-1338 limits assumed: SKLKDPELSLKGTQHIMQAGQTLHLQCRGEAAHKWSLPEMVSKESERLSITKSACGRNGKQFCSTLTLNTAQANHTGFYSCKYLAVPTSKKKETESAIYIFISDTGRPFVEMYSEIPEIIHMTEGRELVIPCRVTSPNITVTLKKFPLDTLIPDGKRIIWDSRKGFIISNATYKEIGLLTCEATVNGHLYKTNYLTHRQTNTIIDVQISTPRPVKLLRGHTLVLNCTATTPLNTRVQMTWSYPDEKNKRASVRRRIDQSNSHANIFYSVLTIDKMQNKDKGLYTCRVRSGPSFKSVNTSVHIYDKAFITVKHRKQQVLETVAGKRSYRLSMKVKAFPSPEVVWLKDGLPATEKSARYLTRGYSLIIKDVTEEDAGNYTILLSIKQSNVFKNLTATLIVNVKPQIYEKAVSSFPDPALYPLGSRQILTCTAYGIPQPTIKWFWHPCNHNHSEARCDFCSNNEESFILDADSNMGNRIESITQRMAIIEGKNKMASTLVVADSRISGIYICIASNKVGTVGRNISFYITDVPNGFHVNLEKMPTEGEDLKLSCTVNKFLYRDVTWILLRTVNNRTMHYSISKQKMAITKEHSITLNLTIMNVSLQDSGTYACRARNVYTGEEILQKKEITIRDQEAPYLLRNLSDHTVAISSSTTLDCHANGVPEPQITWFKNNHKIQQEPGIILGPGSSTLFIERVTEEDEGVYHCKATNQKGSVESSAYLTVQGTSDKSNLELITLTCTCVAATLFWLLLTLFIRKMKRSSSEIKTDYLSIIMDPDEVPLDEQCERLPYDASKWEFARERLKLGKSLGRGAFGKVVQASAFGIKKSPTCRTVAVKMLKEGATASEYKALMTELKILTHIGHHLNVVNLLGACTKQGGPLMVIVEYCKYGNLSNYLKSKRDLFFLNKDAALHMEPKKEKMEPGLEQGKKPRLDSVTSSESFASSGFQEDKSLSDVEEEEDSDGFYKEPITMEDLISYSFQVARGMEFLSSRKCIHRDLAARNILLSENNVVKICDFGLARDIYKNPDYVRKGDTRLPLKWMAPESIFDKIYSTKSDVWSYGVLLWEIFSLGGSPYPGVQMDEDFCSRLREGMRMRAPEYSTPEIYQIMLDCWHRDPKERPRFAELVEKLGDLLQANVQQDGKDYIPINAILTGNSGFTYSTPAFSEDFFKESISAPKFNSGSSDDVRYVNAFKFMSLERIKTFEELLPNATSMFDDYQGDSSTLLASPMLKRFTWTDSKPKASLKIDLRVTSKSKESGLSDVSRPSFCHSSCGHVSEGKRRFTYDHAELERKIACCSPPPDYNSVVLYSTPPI
UniProt P09619, 33-1106 limits assumed: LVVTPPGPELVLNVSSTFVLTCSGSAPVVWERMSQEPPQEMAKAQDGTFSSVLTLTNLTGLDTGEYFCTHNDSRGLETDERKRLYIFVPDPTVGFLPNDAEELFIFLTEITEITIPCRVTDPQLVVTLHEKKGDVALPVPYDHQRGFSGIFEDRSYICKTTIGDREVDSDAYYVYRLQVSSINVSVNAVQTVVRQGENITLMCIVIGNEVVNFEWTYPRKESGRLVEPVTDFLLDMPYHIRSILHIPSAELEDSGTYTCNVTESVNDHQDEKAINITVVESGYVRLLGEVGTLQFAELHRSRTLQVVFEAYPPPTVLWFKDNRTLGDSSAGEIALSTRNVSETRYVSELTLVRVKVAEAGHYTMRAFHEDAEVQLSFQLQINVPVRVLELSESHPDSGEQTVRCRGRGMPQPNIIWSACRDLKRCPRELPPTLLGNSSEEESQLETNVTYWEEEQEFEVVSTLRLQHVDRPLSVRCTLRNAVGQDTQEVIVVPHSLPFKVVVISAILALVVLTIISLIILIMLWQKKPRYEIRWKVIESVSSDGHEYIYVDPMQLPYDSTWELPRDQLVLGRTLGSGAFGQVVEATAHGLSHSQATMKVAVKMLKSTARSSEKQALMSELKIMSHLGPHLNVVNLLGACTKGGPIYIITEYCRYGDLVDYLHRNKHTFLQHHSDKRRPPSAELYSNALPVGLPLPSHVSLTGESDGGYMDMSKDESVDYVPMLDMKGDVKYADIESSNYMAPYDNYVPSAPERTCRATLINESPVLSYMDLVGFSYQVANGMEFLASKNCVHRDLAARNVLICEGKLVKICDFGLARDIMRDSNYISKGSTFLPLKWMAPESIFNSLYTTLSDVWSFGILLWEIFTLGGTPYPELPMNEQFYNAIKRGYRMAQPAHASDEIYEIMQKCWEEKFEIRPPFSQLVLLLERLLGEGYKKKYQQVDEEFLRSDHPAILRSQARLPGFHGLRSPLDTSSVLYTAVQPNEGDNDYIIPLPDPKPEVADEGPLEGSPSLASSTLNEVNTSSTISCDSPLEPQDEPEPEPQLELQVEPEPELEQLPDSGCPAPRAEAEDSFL

According to patent publication US10196378B2, “Inhibitors of BCR-ABL mutants and use thereof” (THE REGENTS OF THE UNIVERSITY OF MICHIGAN, priority 2016, dated 2019):

Key:
FGFR1 = FGFR1 (Homo sapiens (Human), UniProt P11362); experiment: NanoSyn single-concentration kinase inhibition; type: biochemical
C-Raf = C-Raf (Homo sapiens (Human), UniProt P04049); experiment: NanoSyn single-concentration kinase inhibition; type: biochemical
PDGFRα = PDGFRα (Homo sapiens (Human), UniProt P16234); experiment: NanoSyn single-concentration kinase inhibition; type: biochemical
Abl2/Arg = Abl2/Arg (Homo sapiens (Human), UniProt P42684); experiment: NanoSyn single-concentration kinase inhibition; type: biochemical
Tie2 = Tie2 (Homo sapiens (Human), UniProt Q02763); experiment: NanoSyn single-concentration kinase inhibition; type: biochemical
DDR1 = DDR1 (Homo sapiens (Human), UniProt Q08345); experiment: NanoSyn single-concentration kinase inhibition; type: biochemical
Csk = Csk (Homo sapiens (Human), UniProt P41240); experiment: NanoSyn single-concentration kinase inhibition; type: biochemical
VEGFR3 (FLT4) = VEGFR3 (FLT4) (Homo sapiens (Human), UniProt P35916); experiment: NanoSyn single-concentration kinase inhibition; type: biochemical
FGFR3 = FGFR3 (Homo sapiens (Human), UniProt P22607); experiment: NanoSyn single-concentration kinase inhibition; type: biochemical
MAP4K5 = MAP4K5 (Homo sapiens (Human), UniProt Q9Y4K4); experiment: NanoSyn single-concentration kinase inhibition; type: biochemical
FLT3 = FLT3 (Homo sapiens (Human), UniProt P36888); experiment: NanoSyn single-concentration kinase inhibition; type: biochemical
EPH-A3 = EPH-A3 (Homo sapiens (Human), UniProt P29320); experiment: NanoSyn single-concentration kinase inhibition; type: biochemical
VEGFR1 (FLT1) = VEGFR1 (FLT1) (Homo sapiens (Human), UniProt P17948); experiment: NanoSyn single-concentration kinase inhibition; type: biochemical
Lck = Lck (Homo sapiens (Human), UniProt P06239); experiment: NanoSyn single-concentration kinase inhibition; type: biochemical
PDGFRβ = PDGFRβ (Homo sapiens (Human), UniProt P09619); experiment: NanoSyn single-concentration kinase inhibition; type: biochemical
Lyn-A = Lyn-A (Homo sapiens (Human), UniProt P07948); experiment: NanoSyn single-concentration kinase inhibition; type: biochemical
[1] = Pharmacokinetics after IV bolus or oral administration in mice; type: in vivo

CC(C)(C)c1cc(NC(=O)Nc2ccc(Oc3ccc4ncncc4c3)cc2)n(-c2ccc3ncccc3c2)n1
% inhibition at 100 nM, FGFR1 (FGFR1): 71% | % inhibition at 100 nM, C-Raf (C-Raf): 98% | % inhibition at 100 nM, PDGFRα (PDGFRα): 92% | % inhibition at 100 nM, Abl2/Arg (Abl2/Arg): 93% | % inhibition at 100 nM, Tie2 (Tie2): 96% | % inhibition at 100 nM, DDR1 (DDR1): 103% | % inhibition at 100 nM, Csk (Csk): 76% | % inhibition at 100 nM, VEGFR3 (FLT4) (VEGFR3 (FLT4)): 53% | % inhibition at 100 nM, FGFR3 (FGFR3): 95% | % inhibition at 100 nM, MAP4K5 (MAP4K5): 8% | % inhibition at 100 nM, FLT3 (FLT3): 92% | % inhibition at 100 nM, EPH-A3 (EPH-A3): 47% | % inhibition at 100 nM, VEGFR1 (FLT1) (VEGFR1 (FLT1)): 49% | % inhibition at 100 nM, Lck (Lck): 91% | % inhibition at 100 nM, PDGFRβ (PDGFRβ): 60% | % inhibition at 100 nM, Lyn-A (Lyn-A): 92% | AUC0-24 h ([1]; IV bolus, 15 mg/kg): 40078.4 ng·h/mL | Clobs ([1]; IV bolus, 15 mg/kg): 6.237 mL/min/kg | T1/2 ([1]; IV bolus, 15 mg/kg): 2.4 h | Vz obs ([1]; IV bolus, 15 mg/kg): 1.3129 L/kg | AUC0-24 h ([1]; PO, 30 mg/kg): 20709.25 ng·h/mL | Bioavailability ([1]; PO, 30 mg/kg): 26% and 25.6% | Clobs ([1]; PO, 30 mg/kg): 23.843 mL/min/kg | Cmax ([1]; PO, 30 mg/kg): 11850.0 ng/mL | T1/2 ([1]; PO, 30 mg/kg): 4 h | Tmax ([1]; PO, 30 mg/kg): 0.5 h | Vz obs ([1]; PO, 30 mg/kg): 8.2925 L/kg | onset of action ([1]; oral administration): 30 min

“And” between values parts separate entries of the source, which are not always exact repeats. Equal values may be shown once.
